BindingDB's records for doi:10.1021/acs.jmedchem.8b02026 (Leiden University, 2019)

Protein sequences, listed by entry. Tags and fused reporters are not part of them.
UniProt P0DMS8, whole entry: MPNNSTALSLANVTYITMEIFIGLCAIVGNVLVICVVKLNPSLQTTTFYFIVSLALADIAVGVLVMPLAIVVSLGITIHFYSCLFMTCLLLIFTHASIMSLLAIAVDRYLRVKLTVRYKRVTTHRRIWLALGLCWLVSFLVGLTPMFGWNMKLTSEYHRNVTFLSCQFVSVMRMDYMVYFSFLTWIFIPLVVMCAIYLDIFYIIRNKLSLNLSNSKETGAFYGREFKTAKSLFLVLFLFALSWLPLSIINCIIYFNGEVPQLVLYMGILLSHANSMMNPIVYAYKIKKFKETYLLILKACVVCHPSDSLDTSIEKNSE

Legend:
[1] = biological target: T1, Adenosine receptor A3 (Homo sapiens, UniProt P0DMS8); test: Displacement of [3H]PSB11 from human A3 adenosine receptor expressed in CHO cell membranes measured after 0.5 hrs by scintillation spectrometric method
Outline: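 hA3AR CHO membranes co-incubated 0.5 h at 25 °C with competitor and [3H]PSB-11 (~10 nM) in Tris/MgCl2/CHAPS/EDTA buffer, pH 7.4. Filtration and scintillation counting; Ki by Cheng-Prusoff; three experiments in duplicate.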

[2] = biological target: T1, Adenosine receptor A3; test: Displacement of [3H]PSB11 from human A3 adenosine receptor expressed in CHO cell membranes measured after 2 hrs by scintillation spectrometric method
Outline: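 CHO membranes stably expressing hA3AR (15 µg) in 50 mM Tris-HCl, 5 mM MgCl2, 0.01% CHAPS, 1 mM EDTA, pH 7.4, with ~10 nM [3H]PSB-11 and six competitor concentrations, 120 min at 25 °C. Nonspecific binding defined with 100 µM NECA. Filtration, then scintillation counting; one-site fit, Cheng-Prusoff Ki; three experiments in duplicate.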

[3] = biological target: T1, Adenosine receptor A3; test: Displacement of [3H]PSB11 from human A3 adenosine receptor expressed in CHO cell membranes preincubated for 4 hrs followed by [3H]PSB11 addition and measured after 0.5 hrs by scintillation spectrometric method
Outline: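 hA3AR CHO membranes preincubated 4 h at 25 °C with competitor, then co-incubated 0.5 h with [3H]PSB-11 (~10 nM). Filtration and scintillation counting; apparent Ki; three experiments in duplicate.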

Q: Which results are given for `CCCn1c(=O)c2c(nc3cc(OC)ccn32)n(CCCNC(=O)c2ccc(S(=O)(=O)F)cc2)c1=O`?
A: Ki [1]: 0.126 µM; Ki [2]: 0.01 µM; Ki [3]: 0.01 µM
